Experimental data published in PMC10870044, “The Interplay Between HIF‐1α and EZH2 in Lung Cancer and Dual‐Targeted Drug Therapy” (Advanced Science, 2023).

Test system: EZH2
Assay: Western blot of EZH2 substrate H3K27me3 after HIF-1 inhibitors
Conditions: A549 and H460 cell lines; EZH2 protein expression not affected

SMILES: N[C@@H](Cc1ccc([N+]([O-])(CCCl)CCCl)cc1)C(=O)O
- level of the EZH2 substrate H3K27me3: increase in the level of the EZH2 substrate H3K27me3
